Apparent affinities of Ab-95 variants for a coronavirus HR2 peptide

The target is the same throughout: PDVDLGDISGINAS, from the HR2 region of SARS-CoV-2 spike.

Parent scFv Ab-95: VH joined to VL by a (GGGGS)3 linker. Changes lie in the light chain CDRs alone.
VH: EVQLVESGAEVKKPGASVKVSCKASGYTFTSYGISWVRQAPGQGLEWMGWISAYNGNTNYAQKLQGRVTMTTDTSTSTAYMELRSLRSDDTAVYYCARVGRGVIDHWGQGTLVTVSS
VL: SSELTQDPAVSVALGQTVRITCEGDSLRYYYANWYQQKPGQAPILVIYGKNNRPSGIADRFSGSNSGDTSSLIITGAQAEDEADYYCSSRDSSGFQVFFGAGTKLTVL

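The parent was found by panning a naive human phage display library on the peptide. Library AAYL52 holds single substitutions and randomly drawn double and triple substitutions in the CDRs. AlphaSeq pools MATa yeast showing the antibodies with MATalpha yeast showing the peptide. Binding brings cells together so that they mate, and sequencing counts the barcode pairs among the diploids. Read counts were normalised to the haploid input and turned into Kd by a linear fit to BCL2-family pairs of known affinity, for each replicate. The assay was run in three technical replicates.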

Positions count from residue 1 of the parent VL; Y31P puts P in place of Y. Each Kd is an estimate from the mating assay, the geometric mean of the replicates in which the pair was seen; lower is stronger. An entry "not detected" has no value in the source: the pair was not observed among the diploids in any replicate. This suggests poor binding but is not conclusive. Empty control strains, which show no peptide, gave a signal in 28% of pairings with library AAYL52; the median was 8.2 µM and 95% of these signals were weaker than 800 nM. No background was subtracted.

changes | Kd (apparent) | replicates with signal
Y31P S93A G94W | 1.5 µM | 2 of 3
N52C D91A S92D | 6.0 µM | 3 of 3
G24W R28A P54W | 29 µM | 2 of 3
E23L Y31D F98K | 28 nM | 3 of 3
E23P Y30H R53F | not detected | 0 of 3
L27R Y30N R90Q | 570 nM | 3 of 3
E23V S88F S92Y | 1.1 µM | 3 of 3
Y31D F95P | 29 nM | 3 of 3
Y31D R90C Q96R | 98 nM | 3 of 3
Y30N G49Q N51C | 93 nM | 3 of 3
N33L R90Q F95I | 64 µM | 1 of 3
S89R D91S F98G | 5.8 µM | 1 of 3
Y31I S89N | not detected | 0 of 3
E23H Y31H | 26 nM | 3 of 3
E23Y N33F Q96I | 19 µM | 2 of 3
G49F S89Y S93H | not detected | 0 of 3
R28N G49Y K50Y | 4.2 µM | 1 of 3
L27M P54Q S88I | 48 µM | 3 of 3
S26V R28V S89V | not detected | 0 of 3
G24H S89M F95W | not detected | 0 of 3
N52I V97E | not detected | 0 of 3
D25V S55P D91L | 2.1 µM | 3 of 3
Y30E R53L | 39 nM | 3 of 3
E23F K50M F95R | 260 nM | 3 of 3
S26I Y30I F98E | 4.0 µM | 3 of 3
K50I N52L F95A | 3.9 µM | 3 of 3
N51H N52A S92W | 5.1 µM | 3 of 3
G24Q D25P Y29V | 220 µM | 2 of 3
Y30Q Y31N F98W | 3.8 nM | 3 of 3
Y29S R53C D91W | 4.6 µM | 3 of 3
S88R F95I | 3.4 µM | 2 of 3
K50P N51D D91Q | 5.7 µM | 1 of 3
Y29T Y30L S88M | 20 nM | 3 of 3
S26K L27N S93K | not detected | 0 of 3
G49N R90L G94V | 2.1 µM | 1 of 3
S88D S92I F95W | 990 nM | 1 of 3
R28I Y30R R53D | 8.2 µM | 1 of 3
Y29V S55T Q96P | 80 µM | 1 of 3
A32S K50Q R53G | not detected | 0 of 3
Y29E A32F F95W | 1.5 µM | 3 of 3
G24T S89K | 6.4 µM | 2 of 3
N51I S88A S93T | not detected | 0 of 3
G24T R28N G49D | not detected | 0 of 3
G49P R90Y V97W | 920 nM | 1 of 3
G94Q F95T F98K | 100 nM | 3 of 3
R53D Q96C F98S | 98 µM | 2 of 3
G49M K50A F95M | 27 µM | 2 of 3
D25T N33G G94P | 4.4 µM | 2 of 3
A32R K50P G94H | 240 µM | 1 of 3
N51G F95I F98P | 11 µM | 2 of 3
S26K Y31D N52G | 59 nM | 3 of 3
N33A N51E S88Y | 100 µM | 3 of 3
R28A S89H R90A | 260 nM | 3 of 3
E23D Y29C | 890 nM | 3 of 3
S26F G49M N52P | 19 µM | 1 of 3
L27N Y31F | 5.4 µM | 3 of 3
L27C R90K F95T | 39 µM | 2 of 3
Y29S Y30H N51Q | 16 nM | 3 of 3
Y29A D91S G94A | 200 nM | 2 of 3
R28I Y31S N52K | 2.5 µM | 2 of 3
N33S N51W P54Q | 6.0 µM | 2 of 3
A32F R90V | 11 µM | 1 of 3
S92M S93E F98L | 170 nM | 3 of 3
R53S D91H S93D | 2.1 µM | 2 of 3
N52W R53Q S89E | 170 µM | 1 of 3
N33S D91V F95C | 2.9 µM | 2 of 3
N33K G94S Q96L | not detected | 0 of 3
S55E S92Y | 52 nM | 3 of 3
S26I K50I | 2.6 µM | 3 of 3
Y29V Y31A Q96W | 1.6 µM | 3 of 3
G24Y S26N S92L | 20 µM | 1 of 3
Y29F R53F S88E | not detected | 0 of 3
Y29F Y30P Q96P | 180 nM | 3 of 3
N33M S88T F98T | 29 µM | 1 of 3
E23I L27E Y31W | 58 nM | 3 of 3

12 of these entries, quoted again:

changes | Kd (apparent) | replicates with signal
L27R Y30N R90Q | 570 nM | 3 of 3
R53S D91H S93D | 2.1 µM | 2 of 3
Y29T Y30L S88M | 20 nM | 3 of 3
Y30N G49Q N51C | 93 nM | 3 of 3
N33M S88T F98T | 29 µM | 1 of 3
K50P N51D D91Q | 5.7 µM | 1 of 3
S55E S92Y | 52 nM | 3 of 3
N33S D91V F95C | 2.9 µM | 2 of 3
Y29S R53C D91W | 4.6 µM | 3 of 3
N33L R90Q F95I | 64 µM | 1 of 3
N52C D91A S92D | 6.0 µM | 3 of 3
S88R F95I | 3.4 µM | 2 of 3

From the AlphaSeq antibody data of Engelhart et al. 2022 (doi:10.1038/s41597-022-01779-4), copy in the FLAb collection.